Results: PubChem BioAssay AID2129 (The Scripps Research Institute Molecular Screening Center, 2009)
The list shows a part of the results, in another mix than the full data. Some structures show a salt or complex split into parts, the way the source records it. Activity calls are given as the source filed them.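 How the source made its calls: active means inhibition above the mean of all tested compounds plus 3 SD, cutoff set per campaign (cut at about 30% in these data); inactive means the rest.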

Sequences of proteins named here, by UniProt entry; tags and fusion partners are left off.
UniProt Q07817, whole entry: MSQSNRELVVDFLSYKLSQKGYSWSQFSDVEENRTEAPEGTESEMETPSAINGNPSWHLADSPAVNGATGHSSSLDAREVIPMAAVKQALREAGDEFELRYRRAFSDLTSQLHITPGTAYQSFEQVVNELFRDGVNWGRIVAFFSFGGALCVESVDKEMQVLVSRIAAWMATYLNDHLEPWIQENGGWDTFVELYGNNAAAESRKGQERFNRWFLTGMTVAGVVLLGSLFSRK

Biological target: Bcl-2-like protein 1 (Homo sapiens) (UniProt Q07817)
Experiment: inhibitors of human Bcl-xL, primary screen, biochemical, fluorescence polarization, HTS (AID 2129);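 further: 0% = DMSO wells and 100% = unlabeled Bim-BH3 peptide competitor; inhibitors lower millipolarization by displacing the labeled peptide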
Conditions: GST-Bcl-xL / FITC-Bim BH3 peptide fluorescence polarization; at 10.9 µM; active compounds read high

Row | SMILES | inhibition
1 | CP(=O)(Nc1ccccc1)Oc1ccc(F)cc1 (configuration not stated) | inactive: -2.33%
2 | O=[N+]([O-])c1cc([N+](=O)[O-])c(OC2CCCCC2O)c([N+](=O)[O-])c1 (configuration not stated) | inactive: 8.87%
3 | CCCCCOc1ccc(NP(C)(=O)Oc2ccc(Cl)cc2Cl)cc1 (configuration not stated) | inactive: 1.07%
4 | CCN(CC)CCCOC(=O)C(O)(c1ccccc1)C1CCCCC1 (configuration not stated) | inactive: -1.03%
5 | CCOC(=O)c1ccc(NP(C)(=O)Oc2ccc(F)cc2)cc1 (configuration not stated) | inactive: -0.66%
6 | COc1ccc(OP(C)(=O)Nc2ccc(SC(F)(F)F)cc2)cc1 (configuration not stated) | inactive: 7.85%
7 | COc1ccc2c(c1O)-c1c(O)c(OC)cc3c1[C@H](C2)[N+](C)(C)CC3.O=[N+]([O-])c1cc([N+](=O)[O-])c([O-])c([N+](=O)[O-])c1[O-] | inactive: 10.9%
8 | O=C(OC1CN2CCC1CC2)c1ccc([N+](=O)[O-])cc1 (configuration not stated) | inactive: -0.11%
9 | O=C(OCCN1CCN(CCOCc2ccccc2)CC1)C(O)(c1ccccc1)c1ccccc1 | inactive: 6.94%
10 | CP(=O)(Nc1ccccc1F)Oc1ccccc1 (configuration not stated) | inactive: 1.35%
11 | CC(C)c1ccc(OP(C)(=O)Nc2ccc(SC(F)(F)F)cc2)cc1 (configuration not stated) | inactive: 3.02%
12 | Cc1ccccc1NP(C)(=O)Nc1ccccc1C | inactive: -0.12%
13 | CP(=O)(Nc1ccc2c(c1)OCCO2)Oc1ccccc1 (configuration not stated) | inactive: 7.77%
14 | CCOP(C)(=S)SCC(=O)NC(C)(CC)C(=O)O (configuration not stated) | inactive: 5.18%
15 | CP(=O)(Nc1ccc(SC(F)(F)F)cc1)Oc1ccc(F)cc1 (configuration not stated) | inactive: 7.39%
16 | O=[N+]([O-])c1cc([N+](=O)[O-])c(NCC2CCS(=O)(=O)C2)c([N+](=O)[O-])c1 (configuration not stated) | inactive: 3.32%
17 | CN(C)CCOC(=O)C(O)(c1ccccc1)C1CCCCC1 (configuration not stated) | inactive: 4.35%
18 | COc1ccc(NP(C)(=O)Oc2ccccc2OC)cc1 (configuration not stated) | inactive: 2.13%
19 | COc1ccc(OP(C)(=O)Nc2cccc(Br)c2)cc1 (configuration not stated) | inactive: 6.9%
20 | CCOC(=O)c1ccc(NP(C)(=O)Oc2ccc(Cl)cc2)cc1 (configuration not stated) | inactive: 2.81%
21 | CP(=O)(OC12CC3CC(CC(C3)C1)C2)OC12CC3CC(CC(C3)C1)C2 | inactive: -1.95%

Row | SMILES | inhibition
22 | Nc1ccc2c(ccc3cccnc32)n1.O=[N+]([O-])c1cc([N+](=O)[O-])c(O)c([N+](=O)[O-])c1 | inactive: 4.99%
23 | CN(C)C(=O)c1c([N+](=O)[O-])cc([N+](=O)[O-])cc1[N+](=O)[O-] | inactive: 10.7%
24 | COc1ccccc1OP(C)(=O)Nc1ccccc1Br (configuration not stated) | inactive: 8.44%
25 | CC(C)(C)c1ccc(OP(C)(=O)O)cc1 | inactive: 0.83%
26 | CP(=O)(Nc1ccc(Cl)cc1)Oc1ccc(F)cc1 (configuration not stated) | inactive: 1.43%
27 | COc1ccccc1OP(C)(=O)Nc1c(C)n(C)n(-c2ccccc2)c1=O (configuration not stated) | inactive: 1.43%
28 | O=C(OCCCN1CCCC1)C(O)(c1ccccc1)C1CCCCC1 (configuration not stated) | inactive: 0.2%
29 | CP(=O)(Oc1ccccc1)N1CCOC1=O (configuration not stated) | inactive: 1.97%
30 | CCc1ccc(OP(C)(=O)Nc2cccnc2)cc1 (configuration not stated) | inactive: 7.79%
31 | CCN(CC)CC(O)COC(=O)C(O)(c1ccccc1)C1CCCCC1 (configuration not stated) | inactive: -5.6%
32 | COc1ccc(OP(C)(=O)Nc2ccc(Br)cc2)cc1 (configuration not stated) | inactive: 5.16%
33 | CP(=O)(Nc1ccccn1)Oc1ccccc1 (configuration not stated) | inactive: 2.76%
34 | COc1ccccc1OP(C)(=O)Nc1ccc(C)cc1C (configuration not stated) | inactive: 4.09%
35 | Cc1c(NP(C)(=O)Oc2ccc(C(C)C)cc2)c(=O)n(-c2ccccc2)n1C (configuration not stated) | inactive: 15.5%
36 | O=[N+]([O-])c1cc([N+](=O)[O-])c(Nc2ccccn2)c([N+](=O)[O-])c1 | inactive: 6.59%
37 | COc1ccc(OP(C)(=O)Nc2ccccn2)cc1 (configuration not stated) | inactive: 6.45%
38 | CN(C)CCOC(=O)C(O)(c1ccccc1)C1CCCC1 (configuration not stated) | inactive: -1.02%
39 | COc1ccccc1OP(C)(=O)Nc1ccc(Br)cc1 (configuration not stated) | inactive: -0.93%
40 | CP(=O)(Nc1ccc(Cl)cc1Cl)Oc1ccccc1 (configuration not stated) | inactive: 5.23%
41 | CP(=O)(OCCOc1ccccc1)OCCOc1ccccc1 | inactive: -1.89%
42 | Cc1nc2ccc3ccccc3c2o1.O=[N+]([O-])c1cc([N+](=O)[O-])c(O)c([N+](=O)[O-])c1 | inactive: 3.98%

Row | SMILES | inhibition
43 | COc1ccccc1OP(C)(=O)Nc1ccc(C)c(C)c1 (configuration not stated) | inactive: 5.43%
44 | COc1ccc(OP(C)(=O)Nc2ccccc2Br)cc1 (configuration not stated) | inactive: 4.12%
45 | Cc1cc(C)cc(OP(C)(=O)Nc2cccc(C(F)(F)F)c2)c1 (configuration not stated) | inactive: 4.18%
46 | Cc1cc(C)cc(OP(C)(N)=O)c1 (configuration not stated) | inactive: 4.04%
47 | COc1ccccc1OP(C)(=O)Nc1cc(Cl)ccc1C (configuration not stated) | inactive: 6.86%
48 | COc1ccc(OP(C)(=O)Nc2cccc(F)c2)cc1 (configuration not stated) | inactive: 2.43%
49 | COc1ccccc1OP(C)(=O)Nc1ccc(C)cc1 (configuration not stated) | inactive: 3.64%
50 | Cc1ccc(NP(C)(=O)Oc2ccccc2)c(C)c1 (configuration not stated) | inactive: 2.59%
51 | CCOC(=O)c1ccc(NP(C)(=O)Oc2ccccc2)cc1 (configuration not stated) | inactive: 0.69%
52 | O=[N+]([O-])c1ccc2c(c1)C=Nc1ccccc1O2 | inactive: 0.81%
53 | CC(C)(C)c1ccc(OP(C)(=O)Nc2ccc(SC(F)(F)F)cc2)cc1 (configuration not stated) | inactive: -1.24%
54 | Cc1cccc(C)c1OP(C)(N)=O (configuration not stated) | inactive: 3.77%
55 | O=[N+]([O-])c1cc([N+](=O)[O-])c(Nc2cccnc2)c([N+](=O)[O-])c1 | inactive: 6.23%
56 | CCN(CC)CCCOC(=O)C(O)(c1ccccc1)c1ccccc1 | inactive: 0.13%
57 | CP(=O)(Nc1ccccn1)Oc1ccc(Cl)cc1 (configuration not stated) | inactive: 3.26%
58 | CCOC(=O)c1ccc(NP(C)(=O)Oc2ccc(OC)cc2)cc1 (configuration not stated) | inactive: 4.8%
59 | O=[N+]([O-])c1cc([N+](=O)[O-])c(O)c([N+](=O)[O-])c1.c1ccc(Oc2ccncc2)cc1 | inactive: -1.78%
60 | CCOP(C)(=S)SCC(=O)NC(C)C(=O)O (configuration not stated) | inactive: 6.65%
61 | CP(=O)(NC(=O)Nc1ccccc1)Oc1ccccc1 (configuration not stated) | inactive: 1.77%
62 | CCc1ccc(OP(C)(=O)N2CCN(c3ccc([N+](=O)[O-])cc3)CC2)cc1 (configuration not stated) | inactive: -5.67%
